Experimental data as given in US20040023884A1, “Biologically active peptides from functional domains of bactericidal/permeability-increasing protein and uses thereof” (priority 1993, published 2004).

Key:
[1] = 3H-heparin binding assay (affinity and capacity); settings: for Heparin Capacity: heparin bound at saturation
Protocol: Briefly, each fragment was added to wells of a 96-well microtiter plate having a polyvinylidene difluoride membrane (Immunobilon-P, Millipore, Bedford, Mass.) disposed at the bottom of the wells. […] Positive control wells contained varying amounts of rBPI23. […] DuPont-NEN, Wilmington, Del.) were made in the blocking buffer and incubated in the BPI peptide-containing wells for one hour at 4° C. The unbound heparin was aspirated and the wells were washed three times with blocking buffer, dried and removed for quantitation in a liquid scintillation counter (Model 1217, LKB, Gaithersburg, Md.). Although BSA in the blocking buffer did show a low affinity and capacity to bind heparin, this was considered physiologically irrelevant and the background was routinely subtracted from the test compound signal.

Staphylococcus aureus = assay: Radial diffusion bactericidal assay, Staphylococcus aureus; format: cell-based; settings: PROBIT analysis
RAW 264.7 cells = assay: LPS neutralization cellular proliferation assay, RAW 264.7 cells; format: cell-based, mouse
Protocol: In this assay, mouse RAW 264.7 cells (ATCC Accession No. T1B71), maintained in RPMI 1640 media (GIBCO), supplemented with 10 mM HEPES buffer (pH 7.4), 2 mM L-glutamine, penicillin (100U/mL), streptomcin (100 μg/mL), 0.075% sodium bicarbonate, […] 2-mercaptoethanol and 10% fetal bovine serum (Hyclone, Inc., Logan, Utah), were first induced by incubation in the presence of 50U/mL recombinant mouse y-interferon (Genzyme, Cambridge, Mass.) for 24 h prior to assay. Induced cells were then mechanically collected and centrifuged at 500×g at 4° C. and then resuspended in 50 mL RPMI 1640 media (without supplements), re-centrifuged and again resuspended in RPMI 1640 media (without supplements). The cells were counted and their concentration adjusted to 2×10^5 cells/mL and 100 μL aliquots were added to each well of a 96-well microtitre plate. The cells were then incubated for about 15 hours with E. coli O113 LPS (Control Standard. Assoc. of Cape Cod. Woods Hole, Mass.), which was added in 100 μL/well aliquots at a concentration of […] in serum-free RPMI 1640 media (this concentration being the result of titration experiments in which LPS concentration was varied between 50 pg/mL and 100 ng/mL). This incubation was performed in the absence or presence of BPI functional domain peptides in varying concentrations between 25 ng/mL and 50 μg/mL. Recombinant human BPI was used as a positive control at a concentration of 1 μg/mL. Cell proliferation was quantitatively measured by the addition of 1 μCi/well [^3H]-thymidine 5 hours after the time of initiation of the assay. After the 15-hour incubation, labeled cells were harvested onto glass fiber filters with a cell harvester (Inotech Biosystems, EQ-384, Sample Processing and Filter Counting System, Lansing, Mich.).

[2] = test system: rough mutant E. coli J5 bacteria; assay: Radial diffusion bactericidal assay, E. coli J5; format: cell-based; settings: PROBIT analysis
Protocol: BPI proteolytic fragments produced according to Example 1 were screened for bactericidal effects using rough mutant E. coli J5 bacteria in a radial diffusion assay. Specifically, an overnight culture of E. coli J5 was diluted 1:50 into fresh tryptic soy broth and incubated for 3 hours at 37° C. to attain log phase growth of the culture. Bacteria were then pelleted at 3,000 rpm for 5 minutes in a Sorvall RT6000B centrifuge (Sorvall Instruments, Newton, Conn.). 5 mL of 10 mM sodium phosphate buffer (pH 7.4) was added and the preparation was re-pelleted. […] The bacteria were diluted to 4×10^6 CFU/mL in 10 mL of molten underlayer agarose (at approximately 45° C.) and inverted repeatedly to mix in 15 mL polypropylene tubes conventionally used for this purpose.
The entire contents of such tubes were then poured into a level square petri dish and distributed evenly by rocking the dish side-to-side. […] A series of wells were then punched into the hardened agarose using a sterile 3 mm punch attached to a vacuum apparatus. The punch was sterilized with 100% alcohol and allowed to air dry prior to use to avoid contaminating the bacterial culture.
5 or 10 μL of each of the BPI fragments were carefully pipetted into each well. As a negative control, dilution buffer (pH 8.3) was added to a separate well, and rBPI23 at concentrations of 5 μg/mL and 1 μg/mL were also added as positive controls. Each plate was incubated at 37° C. for 3 hours, and then 10 mL of molten overlayer agarose (at approximately 45° C.) was added into the level petri dish, allowed to harden and incubated overnight at 37° C. […] The bacterial zones were measured with a micrometer.

[3] = test system: E. coli 0111:B4 (smooth) bacteria; assay: Radial diffusion bactericidal assay, E. coli 0111:B4; format: cell-based; settings: PROBIT analysis
C. albicans = assay: Radial diffusion fungicidal assay, Candida albicans; format: cell-based
Candida albicans = format: cell-based

## CC[C@H](C)[C@H](N)C(=O)N[C@@H](CCCCN)C(=O)N[C@H](C(=O)N[C@@H](CO)C(=O)NCC(=O)N[C@@H](CCCCN)C(=O)N[C@@H](Cc1c[nH]c2ccccc12)C(=O)N[C@@H](CCCCN)C(=O)N[C@@H](C)C(=O)N[C@@H](CCC(N)=O)C(=O)N[C@@H](Cc1cccc2ccccc12)C(=O)N[C@@H](CCCNC(=N)N)C(=O)N[C@@H](Cc1ccccc1)C(=O)N[C@@H](CC(C)C)C(=O)N[C@@H](CCCCN)C(=O)O)[C@@H](C)CC [BPI.80]
[1]
  Kd: 136 nM
  Heparin Capacity: 210.3 ng
Staphylococcus aureus
  pmol added to well to achieve a 30 mm^2 bactericidal zone, S. aureus: 2,537.82 pmol
RAW 264.7 cells
  EC50 (peptide concentration at which the growth inhibitory effect of LPS was reversed by 50%): 35 ± 36 µg/mL
  IC50 (peptide concentration at which RAW cell growth was inhibited by 50%): >50 µg/mL
[2]
  pmol added to well to achieve a 30 mm^2 bactericidal zone, E. coli J5: 655.37 pmol
[3]
  pmol added to well to achieve a 30 mm^2 bactericidal zone, E. coli O111:B4: b (no detectable activity up to 5 μg/well)

## CC[C@H](C)[C@H](N)C(=O)N[C@@H](CCCCN)C(=O)N[C@H](C(=O)N[C@@H](CO)C(=O)NCC(=O)N[C@@H](CCCCN)C(=O)N[C@@H](Cc1cccc2ccccc12)C(=O)N[C@@H](CCCCN)C(=O)N[C@@H](C)C(=O)N[C@@H](CCC(N)=O)C(=O)N[C@@H](Cc1ccccc1)C(=O)N[C@@H](CCCNC(=N)N)C(=O)N[C@@H](Cc1ccccc1)C(=O)N[C@@H](CC(C)C)C(=O)N[C@@H](CCCCN)C(=O)O)[C@@H](C)CC [BPI.84]
[1]
  Kd: 1000 nM
  Heparin Capacity: 329.2 ng
Staphylococcus aureus
  pmol added to well to achieve a 30 mm^2 bactericidal zone, S. aureus: 9,677.46 pmol
RAW 264.7 cells
  EC50 (peptide concentration at which the growth inhibitory effect of LPS was reversed by 50%): 57 ± 28 µg/mL
  IC50 (peptide concentration at which RAW cell growth was inhibited by 50%): — (No proliferation decrease up to 50 μg/ml)
[2]
  pmol added to well to achieve a 30 mm^2 bactericidal zone, E. coli J5: 11.63 pmol
[3]
  pmol added to well to achieve a 30 mm^2 bactericidal zone, E. coli O111:B4: 46,130.96 pmol

## CC[C@H](C)[C@H](N)C(=O)N[C@@H](CCCCN)C(=O)N[C@H](C(=O)N[C@@H](CO)C(=O)NCC(=O)N[C@@H](CCCCN)C(=O)N[C@@H](Cc1cccc2ccccc12)C(=O)N[C@@H](CCCCN)C(=O)N[C@@H](C)C(=O)N[C@@H](Cc1ccccc1)C(=O)N[C@@H](CCCCN)C(=O)N[C@@H](CCCNC(=N)N)C(=O)N[C@@H](Cc1ccccc1)C(=O)N[C@@H](CC(C)C)C(=O)N[C@@H](CCCCN)C(=O)O)[C@@H](C)CC [BPI.89]
[1]
  Kd: 1200 nM
  Heparin Capacity: 252.8 ng
Staphylococcus aureus
  pmol added to well to achieve a 30 mm^2 bactericidal zone, S. aureus: 7,357.20 pmol
RAW 264.7 cells
  EC50 (peptide concentration at which the growth inhibitory effect of LPS was reversed by 50%): >50 µg/mL
  IC50 (peptide concentration at which RAW cell growth was inhibited by 50%): 11 ± 0.3 µg/mL (≈ 5.91 µM)
[2]
  pmol added to well to achieve a 30 mm^2 bactericidal zone, E. coli J5: 229.09 pmol
[3]
  pmol added to well to achieve a 30 mm^2 bactericidal zone, E. coli O111:B4: 4,210.70 pmol

## CC[C@H](C)[C@H](N)C(=O)N[C@@H](CCCCN)C(=O)N[C@H](C(=O)N[C@@H](CO)C(=O)NCC(=O)N[C@@H](CCCCN)C(=O)N[C@@H](Cc1cccc2ccccc12)C(=O)N[C@@H](CCCCN)C(=O)N[C@@H](C)C(=O)N[C@@H](Cc1ccccc1)C(=O)N[C@@H](Cc1ccccc1)C(=O)N[C@@H](CCCNC(=N)N)C(=O)N[C@@H](Cc1ccccc1)C(=O)N[C@@H](CC(C)C)C(=O)N[C@@H](CCCCN)C(=O)O)[C@@H](C)CC [BPI.90]
[1]
  Kd: 1230 nM
  Heparin Capacity: 274.8 ng
Staphylococcus aureus
  pmol added to well to achieve a 30 mm^2 bactericidal zone, S. aureus: 39,585.98 pmol
[2]
  pmol added to well to achieve a 30 mm^2 bactericidal zone, E. coli J5: 83.11 pmol
[3]
  pmol added to well to achieve a 30 mm^2 bactericidal zone, E. coli O111:B4: 1,765.50 pmol

## CC[C@H](C)[C@H](NC(=O)[C@H](CC(C)C)NC(=O)[C@H](CCCCN)NC(=O)CNC(=O)[C@@H](NC(=O)[C@H](CCCCN)NC(=O)[C@H](CO)NC(=O)[C@@H](N)CCCCN)C(C)C)C(=O)N[C@@H](CCC(N)=O)C(=O)N[C@@H](CC(C)C)C(=O)N1CCC[C@H]1C(=O)N[C@@H](Cc1c[nH]cn1)C(=O)N[C@@H](CCCCN)C(=O)N[C@@H](CCCCN)C(=O)O [BPI.135]
C. albicans
  C. albicans: pmol required for 30 mm^2 zone: 427.81 pmol
Staphylococcus aureus
  pmol added to well to achieve a 30 mm^2 bactericidal zone, S. aureus: b (no detectable activity up to 5 μg/well)
Candida albicans
  MIC C. alb: 6.25 µg/mL (≈ 3.9 µM)
[2]
  pmol added to well to achieve a 30 mm^2 bactericidal zone, E. coli J5: 1,052.02 pmol
[3]
  pmol added to well to achieve a 30 mm^2 bactericidal zone, E. coli O111:B4: 3,321.69 pmol

## CC[C@H](C)[C@H](N)C(=O)N[C@@H](CCCCN)C(=O)N[C@H](C(=O)N[C@@H](CO)C(=O)NCC(=O)N[C@@H](CCCCN)C(=O)N[C@@H](Cc1c[nH]c2ccccc12)C(=O)N[C@@H](CCCCN)C(=O)N[C@@H](C)C(=O)N[C@@H](CCC(=O)O)C(=O)N[C@@H](CCCCN)C(=O)N[C@@H](CCCCN)C(=O)N[C@@H](Cc1ccccc1)C(=O)N[C@@H](CC(C)C)C(=O)N[C@@H](CCCCN)C(=O)O)[C@@H](C)CC [BPI.147]
C. albicans
  C. albicans: pmol required for 30 mm^2 zone: >2558.17 pmol
Staphylococcus aureus
  pmol added to well to achieve a 30 mm^2 bactericidal zone, S. aureus: b (no detectable activity up to 5 μg/well)
Candida albicans
  MIC C. alb: 100.00 µg/mL (≈ 55.4 µM)
[2]
  pmol added to well to achieve a 30 mm^2 bactericidal zone, E. coli J5: 8,385.00 pmol
[3]
  pmol added to well to achieve a 30 mm^2 bactericidal zone, E. coli O111:B4: b (no detectable activity up to 5 μg/well)

## CSCC[C@@H]1NC(=O)[C@H](CCCCN)NC(=O)[C@H](CC(C)C)NC(=O)[C@H](Cc2ccccc2)NC(=O)[C@H](CCCNC(=N)N)NC(=O)[C@H](CCCCN)NC(=O)[C@H](CCC(N)=O)NC(=O)[C@H](C)NC(=O)[C@H](CCCCN)NC(=O)[C@H](Cc2c[nH]c3ccccc23)NC(=O)[C@H](CCCCN)NC(=O)[C@@H](N)CSSC[C@@H](C(N)=O)NC(=O)[C@H](CO)NC1=O [BPI.168]
Staphylococcus aureus
  pmol added to well to achieve a 30 mm^2 bactericidal zone, S. aureus: b (no detectable activity up to 5 μg/well)
Candida albicans
  MIC C. alb: >100.00 µg/mL
[2]
  pmol added to well to achieve a 30 mm^2 bactericidal zone, E. coli J5: 1,460.98 pmol
[3]
  pmol added to well to achieve a 30 mm^2 bactericidal zone, E. coli O111:B4: 5,158.82 pmol

In brackets after ≈: the same amount, converted by molar mass.
